# Laboratory results taken from patent publication US10976306B2, “Protein degradation inducing tag and usage thereof” (Tokyo University of Science Foundation, priority 2015, dated 2021).
# The chains behind the UniProt entries cited, without tags or fusion partners. Where a name states a change or a piece, a line headed by the entry shows the natural chain unless it says otherwise.
# UniProt P28074: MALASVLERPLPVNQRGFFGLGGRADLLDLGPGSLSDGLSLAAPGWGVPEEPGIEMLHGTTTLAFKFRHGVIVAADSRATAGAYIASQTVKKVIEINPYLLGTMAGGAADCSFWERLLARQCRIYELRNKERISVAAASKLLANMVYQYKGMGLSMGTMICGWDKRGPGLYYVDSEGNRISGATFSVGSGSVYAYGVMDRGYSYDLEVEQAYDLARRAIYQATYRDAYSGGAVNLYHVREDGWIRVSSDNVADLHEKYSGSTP
# UniProt Q99436: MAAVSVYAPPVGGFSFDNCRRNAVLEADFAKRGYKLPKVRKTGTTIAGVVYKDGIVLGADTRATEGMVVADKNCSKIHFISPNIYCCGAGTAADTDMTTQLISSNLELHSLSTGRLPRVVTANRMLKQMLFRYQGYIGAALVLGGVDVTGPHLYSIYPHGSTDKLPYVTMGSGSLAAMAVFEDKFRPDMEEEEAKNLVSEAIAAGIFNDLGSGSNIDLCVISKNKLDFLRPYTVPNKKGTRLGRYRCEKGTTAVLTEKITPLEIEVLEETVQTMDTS
# Experiments:
# [1] = biological target: β5 (chymotrypsin-like activity) of 20S proteasome (Homo sapiens, UniProt P28074); test: 20S proteasome inhibitory activity, AMC fluorescent substrate Suc-LLVY-AMC
# [2] = biological target: β2 (trypsin-like activity) of 20S proteasome (Homo sapiens, UniProt Q99436); test: 20S proteasome inhibitory activity, AMC fluorescent substrate Bz-VGR-AMC; conditions: FIGS. 4B, 7B; compared with the original proteasome inhibitor alone
SMILES,IC50 [1] [µM],inhibitory activity against β2 [2]
CC(C)C[C@H](NC(=O)CNC(=O)c1cc(Cl)ccc1Cl)B(O)O [MLN2238],0.043,–
CC(C)C[C@H](NC(=O)[C@H](Cc1ccccc1)NC(=O)c1cnccn1)B(O)O [Bortezomib],–,not significantly inhibited
